From article PMC5519534, “AM-37 and ST-36 Are Small Molecule Bombesin Receptor Antagonists” (Frontiers in Endocrinology, 2017)

Amino acid sequences for entries named in this document (tags omitted).
UniProt P30989, whole entry: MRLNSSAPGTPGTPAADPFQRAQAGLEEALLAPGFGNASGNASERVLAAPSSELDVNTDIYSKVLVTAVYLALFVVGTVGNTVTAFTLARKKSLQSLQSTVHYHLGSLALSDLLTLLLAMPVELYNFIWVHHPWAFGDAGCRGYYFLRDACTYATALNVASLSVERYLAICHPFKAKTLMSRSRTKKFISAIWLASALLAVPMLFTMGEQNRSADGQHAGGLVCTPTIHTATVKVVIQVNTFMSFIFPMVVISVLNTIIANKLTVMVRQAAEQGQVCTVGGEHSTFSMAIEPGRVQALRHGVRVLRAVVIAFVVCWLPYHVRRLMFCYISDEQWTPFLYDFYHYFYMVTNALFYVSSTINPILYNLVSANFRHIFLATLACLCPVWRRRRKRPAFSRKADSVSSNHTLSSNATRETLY

Target: T1, NTR (Homo sapiens, UniProt P30989)
T1 construct: endogenous in cells; host or cells: NCI-H1299 (transfected with bombesin receptors)
Experiment: Neurotensin-induced cytosolic Ca2+ in NSCLC cells (specificity)
Assay type: cell-based
Conditions: 10 nM

neurotensin [reference compound]
Effect on cytosolic Ca2+: strongly increased
